## OPERA 2.9 data: water solubility values

Source: data files of OPERA 2.9 (Mansouri et al.), github.com/kmansouri/OPERA.

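The OPERA project collected these measurements from public sources as training and test data for property models. The files give a single number for a compound and property, which may rest on several reports. How each value was measured is not recorded, so precision varies. Where a salt, mixture or single isomer is drawn, the source does not say that exactly this form was tested. Unmarked limits or estimates from the upstream databases cannot be ruled out.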

Water solubility is log10 of mol/L, nominally at 25 °C; higher is more soluble.
Cells with "n/a" have no entry in this list.

| structure (SMILES) | name | log solubility (log10 mol/L) |
|---|---|---|
| C=CCCCCCC=O | Oct-7-enal | -1.997 |
| CCC(CC)CC1(C(=O)O)CCCCC1 | 1-(2-Ethyl-butyl)-cyclohexanecarboxylic acid | -4.282 |
| O=C(O)CC(C(=O)O)C(O)C(=O)O (stereo not drawn) | 3-Carboxy-2,3-dideoxypentaric acid | 0.385 |
| C=CC(C)C#N (stereo not drawn) | 2-Methyl-3-butenenitrile | -1.069 |
| CC(CC(=O)NCCO)CC(C)(C)C (stereo not drawn) | n/a | -3.702 |
| CC12CCC(C(=O)N(O)C1=O)C2(C)C (stereo not drawn) | n/a | -0.278 |
| COC(C(F)(F)F)C(F)(F)F | 2-Methoxy-2H-perfluoropropane | -2.114 |
| COc1nc(C(F)(F)F)nc(=NC(O)=NS(=O)(=O)c2ccccc2C(F)(F)F)[nH]1 | Tritosulfuron | -3.75 |
| COc1cc(N)c2c(c1N)C(=O)c1ccccc1C2=O | n/a | -5.75 |
| CC/C=C\CC1=C(C)CCC1=O | Jasmone | -2.045 |
| COc1ccc(C(C)=O)cc1 | 4'-Methoxyacetophenone | -1.86 |
| O=[N+]([O-])c1ccc(N=Nc2ccc(N(CCO)CCO)cc2Cl)cc1 | n/a | -5.959 |
| Nc1cc(S(N)(=O)=O)ccc1S(=O)(=O)CCO | 3-Amino-4-(2-hydroxyethanesulfonyl)benzene-1-sulfonamide | -1.327 |
| c1ccc2c(c1)ccc1cc3c(ccc4ccccc43)cc12 | n/a | -8.483 |
| Cc1coc2ccc(O)cc12 | 3-Methyl-1-benzofuran-5-ol | -2.018 |
| CC(=O)C(N=Nc1ccc(Cl)cc1[N+](=O)[O-])C(=O)Nc1ccccc1Cl (stereo not drawn) | n/a | -7.722 |
| CC(C)C(NC(N)=O)C(=O)O (stereo not drawn) | 2-(carbamoylamino)-3-methylbutanoic acid | -1.532 |
| CCCCCCCC(OC)OC | 1,1-Dimethoxyoctane | -2.918 |
| O=C1CCCCCN1C(=O)Nc1ccc(Cc2ccc(NC(=O)N3CCCCCC3=O)cc2)cc1 | n/a | -7.763 |
| Cc1ccc(-c2ncc(Cl)cc2-c2ccc(S(C)(=O)=O)cc2)cn1 | Etoricoxib | -5.039 |
| CCC([O-])=C1C(=O)CC(C(=O)[O-])CC1=O.[Ca+2] (stereo not drawn) | Prohexadione-calcium | -3.308 |
| CC/C=C\CCCCCCCCCCO | (Z)-11-Tetradecen-1-ol | -4.73 |
| CC(C)OCCOC(=O)c1ccccc1O | 2-(Propan-2-yloxy)ethyl 2-hydroxybenzoate | -2.924 |
| CCC(=O)c1ccc(O)cc1 | Paroxypropione | -2.639 |
| CC(C)(C)c1ccc(Nc2ccc(Nc3ccc(C(C)(C)C)cc3)c3c2C(=O)c2c(O)ccc(O)c2C3=O)cc1 | n/a | -8.653 |
| CCOC(=O)C(C)C(Br)CBr (stereo not drawn) | Ethyl 3,4-dibromo-2-methylbutyrate | -2.868 |
| CC(C)COC(=O)CCCCC(=O)OCC(C)C | Diisobutyl adipate | -3.821 |
| CC(C)(C)CC(C)(C)C1CCC(=NO)C(=NO)C1 (stereo not drawn) | n/a | -6.405 |
| CCCCC(CC)COC(=O)C(C#N)=C(c1ccccc1)c1ccc(OC)cc1 (stereo not drawn) | n/a | -6.991 |
| CCOC(=O)/C(=C\c1ccc([N+](=O)[O-])cc1)N=CO | Ethyl 2-formamido (4-nitrophenyl) acrylate | -2.46 |
| N[C@H](CO)[C@H](O)c1ccc([N+](=O)[O-])cc1 | Chloramphenicol D base | -1.912 |
| Cc1cc(O)n(CCC(=O)O)c(=O)c1C(N)=O | n/a | -1.602 |
| Clc1cc(Oc2c(Cl)c(Cl)c(Cl)c(Cl)c2Cl)c(Cl)c(Cl)c1Cl | n/a | -11 |
| CC1(C)CC(NCCCCCCNC2CC(C)(C)NC(C)(C)C2)CC(C)(C)N1 | n/a | -2.351 |
| NC1=CC(=O)C(=O)c2ccccc21 | 4-Amino-1,2-naphthoquinone | -3.839 |
| CCCCCCCCCCCCCCCCCCO[Si](C)(C)C | Silane, trimethyl(octadecyloxy)- | -6.836 |
| CCCCCCCCCCCC(=O)OC(C)CS(=O)(=O)[O-].[Na+] (stereo not drawn) | Sodium lauroyl 2-methyl isethionate | -2.317 |
| Cc1cc(C)c(S(=O)(=O)NC2CCCCC2)c(C)c1Nc1ccc(Nc2c(C)cc(C)c(S(=O)(=O)NC3CCCCC3)c2C)c2c1C(=O)c1ccccc1C2=O | n/a | -4.819 |

Repeated from above, the 4 entries with the highest log solubility:

| structure (SMILES) | name | log solubility (log10 mol/L) |
|---|---|---|
| O=C(O)CC(C(=O)O)C(O)C(=O)O (stereo not drawn) | 3-Carboxy-2,3-dideoxypentaric acid | 0.385 |
| CC12CCC(C(=O)N(O)C1=O)C2(C)C (stereo not drawn) | n/a | -0.278 |
| C=CC(C)C#N (stereo not drawn) | 2-Methyl-3-butenenitrile | -1.069 |
| Nc1cc(S(N)(=O)=O)ccc1S(=O)(=O)CCO | 3-Amino-4-(2-hydroxyethanesulfonyl)benzene-1-sulfonamide | -1.327 |